Results as given in patent EP1353939B1, “TETRAPEPTIDE REGULATING PROSTATE FUNCTIONS AND ITS COMPOSITIONS AND USES” (Sankt-Peterburgskaya Obschestvennaya Organizatsia …, priority 2001, dated 2004).

Columns and labels:
[1] = mice, single i.m. 1-5 mg/kg
[2] = rats, i.m. 1 µg/kg, 0.3 mg/kg, 3 mg/kg once a day for 90 days
[3] = rats, i.m. 1 µg/kg, 0.1 mg/kg, 1 mg/kg once a day for 6 months

lysyl-glutamyl-aspartyl-proline [Lys-Glu-Asp-Pro tetrapeptide]
alterations in general state, behaviour, motor activity, hair and skin integument, physiological discharge [1]: No alterations | animals died ([1]; during 72 hours and later in 14 days): none of the animals died | side effects (subacute toxicity) [2]: lack of any side effects | pathologic alterations (general state, peripheral blood indices, intrinsic organs, cardiovascular and respiratory systems, liver and kidney functions) [3]: no pathologic alterations | side effects (chronic toxicity) [3]: lack of any side effects
